Reference: ChEMBL document CHEMBL5034046, “Discovery of Small-Molecule CD33 Pre-mRNA Splicing Modulators” (ACS Med Chem Lett, 2022)

By UniProt entry, the sequences of proteins in these tests, tags left out.
UniProt P35372, whole entry: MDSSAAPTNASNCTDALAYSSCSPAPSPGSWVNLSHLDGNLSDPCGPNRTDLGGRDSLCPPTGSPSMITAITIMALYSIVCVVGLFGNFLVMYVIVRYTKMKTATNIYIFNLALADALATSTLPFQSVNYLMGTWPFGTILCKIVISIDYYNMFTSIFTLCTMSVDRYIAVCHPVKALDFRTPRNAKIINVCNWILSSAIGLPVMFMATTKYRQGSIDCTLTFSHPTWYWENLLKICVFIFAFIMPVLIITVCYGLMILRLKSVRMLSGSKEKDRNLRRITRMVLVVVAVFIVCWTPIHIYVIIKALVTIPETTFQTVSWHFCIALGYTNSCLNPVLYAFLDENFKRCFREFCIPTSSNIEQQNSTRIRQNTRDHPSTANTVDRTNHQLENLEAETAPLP

Biological target: Mu-type opioid receptor (Homo sapiens, UniProt P35372)
Experiment: Agonist activity at mu opioid receptor (unknown origin) expressed in cells by beta-arrestin recruitment assay

`Cc1cnc2c(-c3ccc(C(=O)N(c4ncccc4C)[C@@H]4CCCNC4)cc3F)cnn2c1` was tested. Which EC50 did it give?
Its EC50 is over 10 µM.
